According to patent US20260102380A1, “Synthesis and Characterization of Cyclic Hydrocarbon Esters of Everolimus” (BIOTRONIK AG, priority 2022, published 2026):
“And” between values parts separate entries of the source, which are not always exact repeats. Equal values may be shown once.

Assay: Elution study on porcine coronary artery
Conditions: for Percent of Drug Eluted Over Time: samples 1 and 2

In the case of everolimus cyclohexane ester [CRC-023], the “Percent of Drug Eluted Over Time” value (0.5 hours, approx. 125 μg drug on 1 cm vessel section, 25% ethanol/saline, 37° C.) is reported as 1% and 2%, the “Percent of Drug Eluted Over Time” value (1 hour, approx. 125 μg drug on 1 cm vessel section, 25% ethanol/saline, 37° C.) is reported as 3% and 4% and the “Percent of Drug Eluted Over Time” value (2 hours, approx. 125 μg drug on 1 cm vessel section, 25% ethanol/saline, 37° C.) is reported as 9% and 7%. The “Percent of Drug Eluted Over Time” value (3 hours, approx. 125 μg drug on 1 cm vessel section, 25% ethanol/saline, 37° C.) was 16% and 9%, the “Percent of Drug Eluted Over Time” value (23 hours, approx. 125 μg drug on 1 cm vessel section, 25% ethanol/saline, 37° C.) was 35% and 31% and the “Percent of Drug Eluted Over Time” value (Extract (after extraction, following 23 hours of elution)) was 68% and 65%. For the same substance, the “Elution behavior from vessel tissue (in words)” value (porcine coronary arterial tissue, 25% ethanol/saline, 37° C.) was “slowly eluted, with most of the drug recovered after extraction”.
